# scFv variants of Ab-14 (light chain) against a SARS-CoV-2 spike peptide

Source: Li et al. 2023 (doi:10.1038/s41467-023-39022-2), MIT Lincoln Laboratory and A-Alpha Bio; data file from the FLAb repository.

Antigen: PDVDLGDISGINAS, a 14-residue peptide of the SARS-CoV-2 spike HR2 region.

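The parent was found by panning a naive human phage display library on the peptide. These sequences belong to a second round, designed from the earlier measurements on random variants of the parent. Several design methods are mixed in this list. Affinity was read by AlphaSeq, a pooled yeast mating assay with surface-displayed partners. Binding brings cells together so that they mate, and sequencing counts the barcode pairs among the diploids. Scores were corrected for input abundance and mapped to Kd with protein pairs of known affinity run in the same pool. Mating was done six times.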

Ab-14 is the parent antibody, in scFv form: VH, then a 15-residue (Gly4Ser)3 linker, then VL. The heavy chain is unchanged in all variants.
VH: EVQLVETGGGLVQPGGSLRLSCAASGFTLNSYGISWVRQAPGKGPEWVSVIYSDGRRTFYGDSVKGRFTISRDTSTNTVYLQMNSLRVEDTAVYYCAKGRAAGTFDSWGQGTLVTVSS
VL: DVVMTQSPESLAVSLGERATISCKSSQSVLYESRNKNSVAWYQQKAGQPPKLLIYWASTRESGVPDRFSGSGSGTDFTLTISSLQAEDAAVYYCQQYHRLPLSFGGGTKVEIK

The parent's light chain CDRs are KSSQSVLYESRNKNSVA, WASTRES, QQYHRLPLS; each variant's own CDRs replace them letter for letter. The read-out is the apparent dissociation constant on a log10 scale (nM): the lower, the stronger. The mean shown is taken over the replicates in which the pair was detected. Where no diploid with the target was found in any replicate, the entry reads "no signal": below detection, most likely a poor binder, though not proof of it. Values of this round are not directly comparable with the first-round values of the same sequences.

CDR-L1	CDR-L2	CDR-L3	mean, log10 nM	seen in
MLSEVLHMLGVMKNSIA	DLVIRAN	QQYHRLPLM	no signal	0 of 6
KIMQSEYYEDRNKMSVA	SASQRLS	QQYHRLPLS	0.41	6 of 6
FLSQSWLYESRNKNSVA	NASTRES	QQYHRLPLS	-0.02	6 of 6
TLGQVTMQLSVNKNSVA	DANTSGD	QQYDRLPLS	2.59	5 of 6
KLSVMSSYLSVNKNSVA	EMTTREN	QQYDRLPLS	0.75	6 of 6
KLTQTMRFEQKKKNNIA	EVTTRSK	QQYARLPLA	3.12	4 of 6
KSSQSVGYFSRNKNSVA	WASTRES	QQYHRLPLS	2.38	5 of 6
KSSQFVLYESRNKNSVA	WASTRSS	QVYHRLPLS	no signal	0 of 6
MLPESMPQQIDNQNPVA	GAQHTAV	QQYGRLPLT	1.07	6 of 6
KSSGSVLQESRNQNSVA	EASTREV	QQYHRLPLS	0.10	6 of 6
KLTQTMRFEQKKKNNIA	EVSTRSQ	QQYVRLPLA	1.71	3 of 6
KLPQSVLYESRNKNSVA	HASTRED	QDYHRLPLS	-0.18	6 of 6
IVSQLMLWGYHAKNSIA	EAETRIN	QQYERLPLF	0.71	1 of 6
KVSQSVLYESENKNSVA	WAGTREA	QQYHRLPLS	1.29	6 of 6
KQSQSAWMEERNFNSVA	HASTRES	QQYHRLPLS	0.14	6 of 6
KVSIFMLTMDNAWSHIA	NMAEERT	QQYQRLPLS	no signal	0 of 6
KQSQSAWMEERNFNSVA	NASTRES	QQYHRLPLS	-0.04	6 of 6
KSSQNVLYESRNKNSVA	WASTRES	QQYIRLPLS	0.56	6 of 6
RIAEQYFEYMHNINNVA	ETECKAY	QQYAHLPLL	0.84	6 of 6
KISGMYQKESKNKNSVA	EMVNREE	QQYDRLPLS	0.44	6 of 6
KSQQSVLYESRNKNNVA	HASTRED	QQYHRLPLS	0.13	6 of 6
KSSQSVLYESRNANSVA	WASTRES	QQHHRLPLS	no signal	0 of 6
NMQMQQDRMQDAKQNIA	GVDMRET	QQYFRLPFL	0.03	6 of 6
KWSQGVMGESRNKNSVA	DASTRES	QQYHRLPLS	0.33	6 of 6
KLSYSWPGESRNKNSVA	DASTRES	QQYHRLPLS	-0.61	6 of 6
KLSQYVGGETRNKSSLA	DNNTRCD	QQYERLPLS	2.87	1 of 6
KLSQMWLYESRNKNSVA	NASQRES	QQYHRLPLS	-0.20	6 of 6
KMPQSMLYESRNKNSVA	NASQRES	QQYHRLPLS	-0.21	6 of 6
KSLQSVLYESRNKNSVA	EASTRED	QQYGRLPLS	0.08	6 of 6
KLQQSVLYESRNKNSVA	EASTREQ	QQYHRLPLS	-0.29	6 of 6
MIHEMMGLVSHKNSSIA	DNSTREE	QQYDRLPLS	2.68	5 of 6
SMSNAQINPDVWKNSIA	DAEHVAY	QQYSRLPLT	0.11	6 of 6
KLQQSVWYESRNKNSVA	NASTRLS	QQYHRLPLS	0.01	6 of 6
RMEWHNSGATEAKNSMA	GVEHRAN	QQYDRLPLE	0.60	6 of 6
KLQWQQYGENAQEAAIA	NEQTVAQ	QQYSKLPLT	1.03	4 of 6
KLRQSTLYESRNQNSVA	YASTRES	QQYHRLPLS	0.13	6 of 6
TISQITSLFSQTINNVA	EVTTREE	QQYDRLPLT	1.37	2 of 6
KLSQSELYESRNKNSVA	NASQRLQ	QQYHRLPLS	0.17	6 of 6
KMSQSVLYASRNKNSVA	WASTRES	QQYHRLPLS	1.72	5 of 6
KSSQSVLFEHRNKNSVA	DASGRES	QQYWRLPLS	0.54	6 of 6
QFTQNTFYGQRDDNSIA	HADELVK	QQYDRFPLD	1.62	6 of 6
MLSDTVMQGSYSRNSVA	QESTRAE	QQYHHLPLS	0.34	6 of 6
KISQMQRVGSTHGNSIA	EEATRAN	QQYHRLPLS	0.30	6 of 6
SLTKLETTGQKKSENIA	DNSMRYE	QQYSHLPLK	0.20	6 of 6
QIYQAMHTLSQMKNNVA	DVNERGQ	QQYYRLPLS	0.05	6 of 6
KLSQSDLYESRNKNSVA	NASTRFS	QQYHRLPLS	0.49	6 of 6
KLQQSQLYESRMKNSVA	NASTRES	QQYHRLPLS	-0.09	6 of 6
QLLMATMQGQYNRNSVA	HAQTRND	QSYHRLPLS	1.46	5 of 6
KIGDMVHTESRNKNSIA	DMRTRES	QQYYRLPLS	0.76	6 of 6
LSSISYLYESPNKNSVA	EASTREV	QQYHRLPLS	0.19	6 of 6
KMSQSVDGLDRNKNSVA	QASTREM	QQYHRLPLS	-0.10	6 of 6
KVSAFMRGLMMRTDSIA	DNETRNS	QQYDRLPLS	1.09	6 of 6
KSMQSVPYEDRNKNSVA	EASTRCS	QQYHRLPLS	0.13	6 of 6
AISQMLEPAAQNSSSIA	EADRVTE	QQYHKLPLT	2.27	6 of 6
KLQQSELYESRNKNSVA	EASTRES	QQYHRLPLS	-0.20	6 of 6
KLSQSFLYESRNKNSVA	NASTRCS	QQYHRLPLS	-0.04	6 of 6
MLWQQMYGFNLHKDAIA	NAKERTG	QQYGRLPLS	2.05	4 of 6
KSYQSVWYESRNKNSVA	NASLRCS	QQYHRLPLS	1.46	6 of 6
KIAHAPLEYNEKMNSVA	NGACAEI	QQYDRLPLA	0.43	6 of 6
KLSQFYRMESRKKNSVA	DNSTRES	QQYDRLPLS	1.43	5 of 6
MISDMGLHDSRIQDSVA	NNSTREA	QQYDRLPLS	2.94	4 of 6
TISQSANMTSHGRNSVA	QAEMRES	QQYDRLPLS	1.76	3 of 6
KLPQSDLYESRNKNSVA	QASTRES	QQYHRLPLS	-0.32	6 of 6
QFDTNLHYMGANKNSVA	EMTEVTI	QQYHRLPIE	no signal	0 of 6
MISDLMLYGSRNKNPIA	NAETREY	QQYHRLPLE	0.82	6 of 6
HLSDTVMQGLYYRNSVA	QESTRAD	QQYHHLPLS	0.60	6 of 6
KVQQSFLYESRNKNSVA	NASTRES	QQYHRLPLS	0.21	6 of 6
KLSMSMLYESRNKNSVA	NASTRLS	QQYHRLPLS	-0.30	6 of 6
KLPQSQLYESRNKNSVA	NASTRES	QQYHRLPLS	-0.30	6 of 6
KLRQVTEWESFNKNSVA	QTETREN	QDYDRLPLS	no signal	0 of 6
KLSKMVMEGSRNKNSVA	EASQREE	QQYHRLPLS	-0.36	6 of 6
KMRVSLLQGIYRADSIA	STDIRVL	QQYHHLPLS	1.14	6 of 6
HWSQSGLYEEQNKNSVA	WASTRES	QVYHRLPLS	no signal	0 of 6
KYSQSHGGEERNKNSVA	HASLREE	QQYHRLPLS	1.51	5 of 6

Excerpt, the first 6 entries:

CDR-L1	CDR-L2	CDR-L3	mean, log10 nM	seen in
MLSEVLHMLGVMKNSIA	DLVIRAN	QQYHRLPLM	no signal	0 of 6
KIMQSEYYEDRNKMSVA	SASQRLS	QQYHRLPLS	0.41	6 of 6
FLSQSWLYESRNKNSVA	NASTRES	QQYHRLPLS	-0.02	6 of 6
TLGQVTMQLSVNKNSVA	DANTSGD	QQYDRLPLS	2.59	5 of 6
KLSVMSSYLSVNKNSVA	EMTTREN	QQYDRLPLS	0.75	6 of 6
KLTQTMRFEQKKKNNIA	EVTTRSK	QQYARLPLA	3.12	4 of 6

The parent sequence was in this pool as ten entries: three were never detected, three once, and four in most replicates, with averages from 0.34 to 2.37. The authors averaged sequences with at least three values out of six and counted those with two or fewer as poor binders. Empty control strains, which show no peptide, gave a signal in 4% of pairings with all light chain designs; the median was 2.64 and 95% of these signals were weaker than 1.59. No background was subtracted.